From paper PMC11808136, “Screening and identification of host signaling pathways for alleviating influenza-induced production of pro-inflammatory cytokines, IP-10, IL-8, and MCP-1, using a U937 cell-based influenza model” (Frontiers in Microbiology, 2025)

Protein sequences, listed by entry. Tags and fused reporters are not part of them. Lines headed by an entry give the natural chain unless they say otherwise; changes in a name come on top.
UniProt O60674: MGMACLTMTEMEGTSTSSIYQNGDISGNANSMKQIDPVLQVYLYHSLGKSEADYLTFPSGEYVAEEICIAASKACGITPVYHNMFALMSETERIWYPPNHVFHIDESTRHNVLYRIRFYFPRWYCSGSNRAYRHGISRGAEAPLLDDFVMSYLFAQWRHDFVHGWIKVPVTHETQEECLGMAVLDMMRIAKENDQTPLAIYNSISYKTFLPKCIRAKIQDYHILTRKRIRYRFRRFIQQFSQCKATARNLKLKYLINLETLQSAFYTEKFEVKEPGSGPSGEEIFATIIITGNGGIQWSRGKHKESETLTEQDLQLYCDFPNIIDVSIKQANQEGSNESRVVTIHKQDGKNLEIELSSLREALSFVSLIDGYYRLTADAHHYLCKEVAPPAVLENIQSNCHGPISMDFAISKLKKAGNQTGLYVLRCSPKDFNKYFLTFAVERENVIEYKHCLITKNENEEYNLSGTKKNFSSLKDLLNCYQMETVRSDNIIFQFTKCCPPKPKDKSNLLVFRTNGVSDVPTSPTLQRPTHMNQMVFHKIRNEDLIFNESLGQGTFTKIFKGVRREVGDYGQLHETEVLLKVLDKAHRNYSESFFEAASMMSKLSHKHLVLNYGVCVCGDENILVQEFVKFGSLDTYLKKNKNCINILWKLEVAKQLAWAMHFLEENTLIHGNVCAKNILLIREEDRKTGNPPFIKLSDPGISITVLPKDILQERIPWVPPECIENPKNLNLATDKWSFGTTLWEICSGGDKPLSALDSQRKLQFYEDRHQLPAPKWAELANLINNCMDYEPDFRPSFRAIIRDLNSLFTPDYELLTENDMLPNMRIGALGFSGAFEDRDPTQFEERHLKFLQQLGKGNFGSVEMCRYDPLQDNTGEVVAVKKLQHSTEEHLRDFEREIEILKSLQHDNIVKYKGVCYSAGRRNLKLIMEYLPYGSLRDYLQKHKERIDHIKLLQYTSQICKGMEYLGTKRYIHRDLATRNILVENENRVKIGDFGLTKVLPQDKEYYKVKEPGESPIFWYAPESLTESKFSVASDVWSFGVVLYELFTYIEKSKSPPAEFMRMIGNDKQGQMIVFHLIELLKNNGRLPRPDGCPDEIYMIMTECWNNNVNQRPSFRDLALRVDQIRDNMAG

Target: T1, JAK2 (Homo sapiens, UniProt O60674)
T1 construct: purchased KinaseProfiler (Eurofin, Brussels, Belgium)
Test: Cell-free kinase activity assay, JAK2
Assay type: biochemical

## CCS(=O)(=O)N1CC(CC#N)(n2cc(-c3ncnc4[nH]ccc34)cn2)C1 [Baricitinib]
  IC50: 1 nM
